# The list shows a part of the results, in another mix than the full data. Active and inactive are the calls of the source.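 The calls were made as follows: active = activity remaining at or below 50% of control, provided the compound also passes the data quality filters; inactive = the rest, including low values that fail the filters.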
# Sequences of proteins named here, by UniProt entry; tags and fusion partners are left off.
# UniProt Q92560, whole entry: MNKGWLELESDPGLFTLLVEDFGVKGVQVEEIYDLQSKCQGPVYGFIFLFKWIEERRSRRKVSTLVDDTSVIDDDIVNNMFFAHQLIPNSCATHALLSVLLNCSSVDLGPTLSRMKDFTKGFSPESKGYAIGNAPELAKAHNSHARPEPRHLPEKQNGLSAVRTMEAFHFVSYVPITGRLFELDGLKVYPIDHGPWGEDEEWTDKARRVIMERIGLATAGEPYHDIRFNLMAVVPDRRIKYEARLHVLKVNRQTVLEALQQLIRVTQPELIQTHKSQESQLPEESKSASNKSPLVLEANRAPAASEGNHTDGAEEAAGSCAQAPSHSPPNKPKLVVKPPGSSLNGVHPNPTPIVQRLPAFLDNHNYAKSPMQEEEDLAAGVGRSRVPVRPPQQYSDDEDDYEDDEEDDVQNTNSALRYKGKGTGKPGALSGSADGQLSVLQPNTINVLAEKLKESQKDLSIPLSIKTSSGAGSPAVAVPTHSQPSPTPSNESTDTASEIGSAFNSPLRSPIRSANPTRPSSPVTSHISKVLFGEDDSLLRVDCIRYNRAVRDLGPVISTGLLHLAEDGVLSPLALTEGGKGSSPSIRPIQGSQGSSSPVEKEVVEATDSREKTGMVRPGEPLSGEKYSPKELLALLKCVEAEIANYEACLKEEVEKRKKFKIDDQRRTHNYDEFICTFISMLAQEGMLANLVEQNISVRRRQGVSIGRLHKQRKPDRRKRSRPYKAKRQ
# Biological target: Ubiquitin carboxyl-terminal hydrolase BAP1 (Homo sapiens) (UniProt Q92560)
# Assay: inhibitors of BAP1 deubiquitinase, primary screen, biochemical, Ub-AMC fluorescence, kinetic (AID 436);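 also: 100% = DMSO wells rate and 0% = substrate alone blank rate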
# Conditions: recombinant BAP1, Ub-AMC hydrolysis fluorescence kinetic; at 20 µM; hits give low values
row,Structure (SMILES),activity remaining (% of control)
1,Cc1ccc(C)c(NP(C)(=O)Oc2ccccc2)c1 (centres undefined),inactive: 98%
2,Cc1nc2ccc3ccccc3c2s1.O=[N+]([O-])c1cc([N+](=O)[O-])c(O)c([N+](=O)[O-])c1,inactive: 113%
3,CCOP(C)(=S)SCC(=O)NC(C)C(=O)O (centres undefined),inactive: 102%
4,CP(=S)(Nn1cnnc1)Oc1ccccc1 (centres undefined),inactive: 99.8%
5,Cc1ccc(NP(C)(=O)Oc2ccccc2)c(C)c1 (centres undefined),inactive: 85%
6,COc1ccccc1OP(C)(=O)Nc1ccc(C)cc1 (centres undefined),inactive: 78%
7,CP(=O)(Nc1ccccn1)Oc1ccccc1 (centres undefined),inactive: 110%
8,Cn1cc([N+](=O)[O-])nc1[N+](=O)[O-],inactive: 129%
9,COc1ccccc1OP(C)(=O)Nc1ccc(C)c(C)c1 (centres undefined),inactive: 107%
10,Cc1nc2ccc3ccccc3c2o1.O=[N+]([O-])c1cc([N+](=O)[O-])c(O)c([N+](=O)[O-])c1,inactive: 75.3%
11,N#[O+].[C-]#N.[C-]#N.[C-]#N.[C-]#N.[C-]#N.[Fe+2].[Na+].[Na+],inactive: 94%
12,CCN(CC)CC(O)COC(=O)C(O)(c1ccccc1)C1CCCCC1 (centres undefined),inactive: 160%
13,CP(=O)(Oc1ccccc1)N1CCOC1=O (centres undefined),inactive: 104%
14,COc1ccccc1OP(C)(=O)Nc1c(C)n(C)n(-c2ccccc2)c1=O (centres undefined),inactive: 102%
15,CCOP(C)(=S)SCC(=O)NC(C)(CC)C(=O)O (centres undefined),inactive: 95.2%
16,CP(=O)(Nc1ccc2c(c1)OCCO2)Oc1ccccc1 (centres undefined),inactive: 98.2%
17,Cc1ccccc1NP(C)(=O)Nc1ccccc1C,inactive: 101%
18,CN(C)CCOC(=O)C(O)(c1ccccc1)C1CCCCC1 (centres undefined),inactive: 106%
19,CP(=O)(Nc1ccccc1F)Oc1ccccc1 (centres undefined),inactive: 113%
